Experimental data reported in ChEMBL document CHEMBL1152937, “Carbonic anhydrase inhibitors. Inhibition and homology modeling studies of the fungal beta-carbonic anhydrase from Candida albicans with sulfonamides” (Bioorg Med Chem, 2009).

Target: T1, Carbonic anhydrase (Candida albicans (strain SC5314 / ATCC MYA-2876) (Yeast), UniProt Q5AJ71)
T1 sequence (Q5AJ71 whole entry): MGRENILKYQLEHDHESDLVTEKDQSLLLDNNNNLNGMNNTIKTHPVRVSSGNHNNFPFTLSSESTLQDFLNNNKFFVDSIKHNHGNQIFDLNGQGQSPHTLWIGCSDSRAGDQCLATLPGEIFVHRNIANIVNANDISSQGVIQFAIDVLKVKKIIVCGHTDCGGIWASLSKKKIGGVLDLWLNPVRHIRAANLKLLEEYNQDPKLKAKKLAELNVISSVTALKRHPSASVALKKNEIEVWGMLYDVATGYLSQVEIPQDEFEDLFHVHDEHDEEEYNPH

NS(=O)(=O)c1ccc(S(=O)(=O)Nc2cccc3c(Cl)c[nH]c23)cc1
Ki: 1.09 µM
